# Measurements from PubChem BioAssay (NCI).
# Where “and” joins values, the source holds several entries; their conditions need not be identical. Equal values may be shown once.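 Test compounds were applied to cells in 96-well plates for 48 hours at 5 doses. Here, GI50 denotes the concentration required for 50% inhibition of growth. TGI: concentration producing complete growth inhibition.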
# Experiments:
# Experiment in all cases: NCI tumour cell line growth inhibition, 48 h
# SF-295 CNS = system: SF-295 CNS
# EKVX NSCLC = system: EKVX NSCLC
# PC-3 prostate = system: PC-3 prostate
# TK-10 renal = system: TK-10 renal
# SK-OV-3 ovarian = system: SK-OV-3 ovarian
# MDA-MB-435 = system: MDA-MB-435
# HOP-92 NSCLC = system: HOP-92 NSCLC
# DU-145 prostate = system: DU-145 prostate
# CCRF-CEM leukemia = system: CCRF-CEM leukemia
# HCT-116 colon = system: HCT-116 colon
# UO-31 renal = system: UO-31 renal
# SNB-19 CNS = system: SNB-19 CNS
# DLD-1 colon = system: DLD-1 colon
# OVCAR-8 ovarian = system: OVCAR-8 ovarian
# IGROV1 ovarian = system: IGROV1 ovarian
# OVCAR-5 ovarian = system: OVCAR-5 ovarian
# OVCAR-3 ovarian = system: OVCAR-3 ovarian
# NCI-H322M lung = system: NCI-H322M lung
# CAKI-1 renal = system: CAKI-1 renal
# UACC-62 melanoma = system: UACC-62 melanoma
# M19-MEL melanoma = system: M19-MEL melanoma
# RXF 393 renal = system: RXF 393 renal
# NCI-H460 lung = system: NCI-H460 lung
# T-47D breast = system: T-47D breast
# SK-MEL-28 melanoma = system: SK-MEL-28 melanoma
# SK-MEL-2 melanoma = system: SK-MEL-2 melanoma
# KM12 colon = system: KM12 colon
# NCI/ADR-RES ovarian = system: NCI/ADR-RES ovarian
# HL-60(TB) leukemia = system: HL-60(TB) leukemia
# SNB-75 CNS = system: SNB-75 CNS
# RXF-631 renal = system: RXF-631 renal
# SR leukemia = system: SR leukemia
# U251 CNS = system: U251 CNS
# BT-549 breast = system: BT-549 breast
# HCC-2998 colon = system: HCC-2998 colon
# MALME-3M melanoma = system: MALME-3M melanoma
compound,measurement,setting,value
CC1CCOC(=O)/C=C/C=C/C(=O)OC2CC3OC4C5OC5(C)C(O)CC4(COC(=O)C1O)C2(C)C31CO1 (centres undefined),GI50,SF-295 CNS,0.279 µM and 0.311 µM
same,TGI,SF-295 CNS,0.786 µM and 0.715 µM
same,GI50,EKVX NSCLC,0.065 µM and 0.0774 µM
same,TGI,EKVX NSCLC,0.209 µM
same,GI50,PC-3 prostate,0.0193 µM
same,TGI,PC-3 prostate,0.0666 µM
same,GI50,TK-10 renal,0.127 µM
same,GI50,SK-OV-3 ovarian,0.0691 µM
same,GI50,MDA-MB-435,0.0143 µM
same,TGI,MDA-MB-435,0.0384 µM
same,GI50,HOP-92 NSCLC,0.228 µM and 0.136 µM
same,TGI,HOP-92 NSCLC,0.867 µM and 1.11 µM
same,GI50,DU-145 prostate,0.0754 µM
same,TGI,DU-145 prostate,0.747 µM
same,GI50,CCRF-CEM leukemia,0.00688 µM and 0.0334 µM
same,TGI,CCRF-CEM leukemia,0.0537 µM and 0.0853 µM
same,GI50,HCT-116 colon,0.024 µM and 0.0377 µM
same,TGI,HCT-116 colon,0.155 µM and 0.212 µM
same,GI50,UO-31 renal,0.162 µM
same,TGI,UO-31 renal,0.534 µM and 1.44 µM
same,GI50,SNB-19 CNS,0.00692 µM and 0.0526 µM
same,GI50,DLD-1 colon,0.0579 µM and 0.0339 µM
same,TGI,DLD-1 colon,0.433 µM and 0.16 µM
same,GI50,OVCAR-8 ovarian,0.0632 µM and 0.226 µM
same,TGI,OVCAR-8 ovarian,0.174 µM and 0.486 µM
same,GI50,IGROV1 ovarian,0.0399 µM and 0.12 µM
same,TGI,IGROV1 ovarian,0.148 µM and 0.6 µM
same,GI50,OVCAR-5 ovarian,0.0798 µM
same,TGI,OVCAR-5 ovarian,0.275 µM and 2.02 µM
same,GI50,OVCAR-3 ovarian,0.041 µM and 0.049 µM
same,TGI,OVCAR-3 ovarian,0.616 µM and 0.239 µM
same,GI50,NCI-H322M lung,0.317 µM
same,TGI,NCI-H322M lung,0.778 µM and 2.36 µM
same,GI50,CAKI-1 renal,0.115 µM and 0.249 µM
same,TGI,CAKI-1 renal,0.909 µM
same,GI50,UACC-62 melanoma,0.0618 µM and 0.181 µM
same,TGI,UACC-62 melanoma,0.168 µM and 0.56 µM
same,TGI,M19-MEL melanoma,0.3 µM and 0.232 µM
same,GI50,RXF 393 renal,0.0752 µM and 0.181 µM
same,TGI,RXF 393 renal,0.273 µM and 0.62 µM
same,GI50,NCI-H460 lung,0.0272 µM and 0.0422 µM
same,TGI,NCI-H460 lung,0.0942 µM and 0.211 µM
same,GI50,T-47D breast,0.00484 µM
same,TGI,T-47D breast,0.0486 µM
same,GI50,SK-MEL-28 melanoma,0.0233 µM and 0.0389 µM
same,TGI,SK-MEL-28 melanoma,0.221 µM and 0.14 µM
same,GI50,SK-MEL-2 melanoma,0.0603 µM
same,TGI,SK-MEL-2 melanoma,0.245 µM
same,GI50,KM12 colon,0.023 µM and 0.077 µM
same,TGI,KM12 colon,0.202 µM and 0.438 µM
same,TGI,NCI/ADR-RES ovarian,6.65 µM
same,GI50,HL-60(TB) leukemia,0.00434 µM and 0.0253 µM
same,TGI,HL-60(TB) leukemia,0.00736 µM and 0.0439 µM
same,TGI,SNB-75 CNS,0.0733 µM and 0.46 µM
same,GI50,RXF-631 renal,0.231 µM
same,TGI,RXF-631 renal,0.717 µM
same,GI50,SR leukemia,0.00742 µM
same,GI50,U251 CNS,0.0118 µM and 0.0707 µM
same,GI50,BT-549 breast,0.0131 µM
same,TGI,BT-549 breast,0.0428 µM
same,GI50,HCC-2998 colon,0.0147 µM and 0.0689 µM
same,TGI,HCC-2998 colon,0.053 µM and 0.259 µM
same,GI50,MALME-3M melanoma,0.00889 µM and 0.0402 µM
same,TGI,MALME-3M melanoma,0.0244 µM and 0.101 µM
